Details: no GST; compound 300 μM; disappearance by HPLC
Protocol: The compound to be tested was dissolved in 0.2M phosphate buffer and a solution of GST was added. The final concentration was 0.3 mM test compound and 0.006 mM GST, pH 7.3 for TER 230; for TER 231 GST was 0,003 mM, pH 7.1. The solution was incubated at 37°. Decomposition was followed by HPLC. The column was J. T. Baker C18 250×4.6 mm with 5μ particles. The A buffer was 0.05M ammonium acetate, pH 5.5; 5% CH3 CN; B buffer was 70% CH3 CN in A.
The column was run with a gradient of 20%-50% B over 15 min. then to 100% B in 3 mins; then back to 20% B over 6 mins. A 10 μL sample was injected and the flow rate was 1 ml/min. Aliquots were removed and catalytic decomposition was quenched by addition of acetic acid. Overnight HPLC utilizing an autosampler were used; the rates of decomposition were calculated by measuring the rate of disappearance of the peak versus an internal standard which was 0.06 mM of an inert peptide marker.
In addition, half-lives were determined as described above using 3 μM recombinant human GST P1-1, A1-1 or M1a-1a starting with a concentration of the compound to be tested at 300 μM and monitoring disappearance using HPLC.

Row | Substance | IN VITRO HALF LIVES, CONTROL [min]
1 | γ-glutamyl-α-Amino-β-(1-phenyl, (2'ethyl-N,N,N,N-tetra(2'-chloro)ethylphosphoroamidate)sulfonyl) propionyl glycine [TER 296] | 280
2 | γ-glutamyl-α-Amino-β-((2-ethyl-N,N,N,N-tetra(2'-chloro)eth ylphosphoroamidate)sulfonyl)propionylphenylalanine [TER 303] | 335

From patent US5556942A, “Glutathione S-transferase-activated compounds” (priority 1994, dated 1996)
